Measurements as given in patent US5206162A, “Process for making D-aminoacylase” (National Science Council of Republic of China, priority 1991, dated 1993).

By UniProt entry, the sequences of proteins in these tests, tags left out. Residues count along the entry.
UniProt Q9AGH8, 1-484: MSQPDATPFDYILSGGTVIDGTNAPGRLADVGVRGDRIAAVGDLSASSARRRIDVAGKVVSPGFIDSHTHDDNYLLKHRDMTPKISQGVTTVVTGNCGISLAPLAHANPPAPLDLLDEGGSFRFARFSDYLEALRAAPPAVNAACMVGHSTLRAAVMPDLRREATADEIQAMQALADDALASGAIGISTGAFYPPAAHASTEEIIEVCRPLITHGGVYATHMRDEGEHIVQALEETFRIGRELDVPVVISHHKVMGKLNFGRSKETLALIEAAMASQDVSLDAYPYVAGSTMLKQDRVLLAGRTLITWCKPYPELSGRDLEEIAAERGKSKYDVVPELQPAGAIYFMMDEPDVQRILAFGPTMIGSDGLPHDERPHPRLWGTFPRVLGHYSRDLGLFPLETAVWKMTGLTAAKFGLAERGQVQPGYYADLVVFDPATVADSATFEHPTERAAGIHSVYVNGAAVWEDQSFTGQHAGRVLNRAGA

Target: D-aminoacylase (Alcaligenes faecalis, UniProt Q9AGH8)
Experiment: Reagents (inhibitors) influencing the D-aminoacylase activities
Type: biochemical
Conditions: 1 mM inhibitor, 50 mM Tris-HCl pH 7.8, 30 minutes at 37° C., ninhydrin method

SMILES: [N-]=[N+]=[N-]
- Residual activities %: 97%
